Data from paper PMC7394479 (Journal of medicinal chemistry, 2020).
Converted amounts (≈) assume the structure as drawn. Read-outs that look alike come from different tables or passages of the source.

Tests used:
[1] = mice, from peak concentrations at 0.5 h after injection
[2] = cited from earlier work
[3] = cited from earlier work; remark: listed apart in the source

brain-to-plasma ratio [1]: 1.7
Structure (SMILES): COc1cc(/C=C/C(=O)NCCn2c(C(F)(F)F)cc3ccccc32)cc(OC)c1OC [compound 1]
aqueous solubility [2]: 27 µM (≈ 12.1 µg/mL)
brain-to-plasma ratio [3]: 1.7
plasma half-life ([3]; rodents): 1.7 h
